Laboratory results from patent US8222244B2, “Staurosporine derivatives as inhibitors of FLT3 receptor tyrosine kinase activity” (Novartis AG, priority 2001, dated 2012).

Sequences of proteins named here, by UniProt entry; tags and fusion partners are left off. Residues count along the entry.
UniProt P36888, 563-993: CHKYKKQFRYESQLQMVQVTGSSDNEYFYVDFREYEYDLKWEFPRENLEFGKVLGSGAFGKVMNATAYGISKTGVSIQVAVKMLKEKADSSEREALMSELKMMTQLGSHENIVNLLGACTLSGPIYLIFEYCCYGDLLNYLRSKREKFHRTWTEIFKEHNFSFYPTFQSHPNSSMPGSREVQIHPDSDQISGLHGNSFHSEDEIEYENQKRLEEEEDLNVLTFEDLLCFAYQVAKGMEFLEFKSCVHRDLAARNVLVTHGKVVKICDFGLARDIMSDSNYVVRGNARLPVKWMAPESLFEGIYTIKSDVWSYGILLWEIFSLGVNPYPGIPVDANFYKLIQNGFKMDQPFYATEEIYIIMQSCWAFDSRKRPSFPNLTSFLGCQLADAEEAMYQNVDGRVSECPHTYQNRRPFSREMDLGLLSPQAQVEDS

Molecular target: T1, human Flt-3 (Homo sapiens, UniProt P36888)
T1 construct: expresses the amino acid region amino acids 563-993 of the intra-cytoplasmic kinase domains of human Flt-3; made in house; host or cells: Sf9 insect cells (baculovirus, pFbacG01 donor vector)
Test: Tyrosine protein kinase assay with purified GST-Flt-3 (33P incorporation)
Type: biochemical
Conditions: at a 1.0 micromolar concentration
Procedure: ATP into appropriate substrates.
The coding sequences for the cytoplasmic domain of Flt-3 was amplified by PCR from human c-DNA libraries (Clontech). The amplified DNA fragments and the pFbacG01 vector were made compatible for ligation by digestion with BamH1 and Hind III. […] The production of the viruses, the expression of proteins in Sf9 cells and the purification of the GST-fused proteins were performed as following:
(Generation of Bac- to Bac GST-fusion vectors); pFbacG01, pFbacGST2T and pFbacGSTx3 Bac-to-Bac™ donor vectors were generated from pAcG1, pAcG2T and pAcG3X respectively, which facilitate the expression of GST-fusion proteins with the possibility of cleavage with thrombin (pFbacGT2) or factor Xa (pFbacGSTx3) while pFbacG01 expresses no proteolytic cleavage site. These were generated in house by isolation of the DNA fragment containing the gene for GST with the C-terminal protease and restriction sites by restriction enzyme digestion of the relevant PharMingen baculovirus donor vector with EcoRV and EcoRI. […]
ATP 0.1 μCi). […] Membranes were counted after drying at ambient temperature, mounting in Packard TopCount 96-well frame, and addition of 10 μL/well of Microscint™ (Packard). […]

CN[C@@H]1C[C@H]2O[C@@](C)([C@@H]1OC)n1c3ccccc3c3c4c(c5c6ccccc6n2c5c31)C(=O)NC4 [62996-74-1, (9S,10R,11R,13R)-2,3,10,11,12,13-Hexahydro-10-methoxy-9-methyl-11-(methylamino)-9,13-epoxy-1H,9H-diindolo[1,2,3-gh:3′,2′,1′-lm]pyrrolo[3,4-j][1,7]benzodiazonin-1-one, reference compound]
Flt3 Inhibition (percent inhibition of Flt3 kinase activity): 100%
